AlphaSeq binding of Ab-91 heavy chain variants to a spike HR2 peptide

Reference: Engelhart et al. 2022, doi:10.1038/s41597-022-01779-4. File: FLAb, binding data.

Target peptide (SARS-CoV-2 spike, HR2 region): PDVDLGDISGINAS

Each scFv is VL, the linker GGGGSGGGGSGGGGS, VH, as in the parent Ab-91, and differs from it in the CDRs of the heavy chain only.
VL: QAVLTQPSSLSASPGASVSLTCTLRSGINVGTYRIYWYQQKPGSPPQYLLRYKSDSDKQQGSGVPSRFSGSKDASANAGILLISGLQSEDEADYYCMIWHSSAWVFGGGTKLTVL
VH: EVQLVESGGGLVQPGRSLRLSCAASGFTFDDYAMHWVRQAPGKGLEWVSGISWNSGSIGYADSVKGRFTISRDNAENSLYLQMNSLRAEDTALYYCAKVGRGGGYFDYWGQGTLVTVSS

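The starting antibody came from a phage panning campaign against this peptide. AAYL51 was designed without a model: most single CDR substitutions and a random sample of double and triple ones. Affinity was read by AlphaSeq, a pooled yeast mating assay with surface-displayed partners. Pairs that bind mate more often; barcode pairs of the diploids are counted by sequencing. A regression on co-assayed BCL2-family reference pairs converts the normalised counts of each replicate to an apparent Kd. Each pool was mated in three replicate cultures.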

Positions count from residue 1 of the parent VH; G50H puts H in place of G. The read-out is the apparent dissociation constant on a log10 scale (nM): the lower, the stronger. A mean of the replicates is given; it leaves out those without a signal. "not detected" marks a missing value. The strain was present, yet no cells mated with the target were sequenced in any replicate, which points to weak or no binding. Empty control strains, which show no peptide, gave a signal in 21% of pairings with library AAYL51; the median was 4.54 and 95% of these signals were weaker than 3.26. No background was subtracted. For reference, the parent read 1.86 as the reference entry and 0.88 as a member of this library.

changes,"log10 Kd (nM), mean",seen in
G50H/W53F/N54Y,not detected,0 of 3
G59S/D62N/R101N,3.27,2 of 3
I51G/D62Q/V99P,not detected,0 of 3
T28E/N54P/Y108C,not detected,0 of 3
Y32F/G100T,4.00,1 of 3
S52P/S63W/Y108N,4.63,1 of 3
Y32E/M34R/N54Y,6.13,1 of 3
H35M/S55D/S63M,5.53,1 of 3
T28M/D30T/F106P,not detected,0 of 3
A33N/A61L,4.93,3 of 3
F27Q/I51M/I58K,not detected,0 of 3
G56C/V99P/G103P,4.49,2 of 3
Y32K/A61W,4.66,1 of 3
I58W/G102Q/G104T,5.08,2 of 3
D30E/S63A,0.54,3 of 3
D30L/S52N/V99P,not detected,0 of 3
A33W/N54A/R101P,3.71,1 of 3
N54C/Y105M,not detected,0 of 3
F29V/S52D/D62G,5.02,1 of 3
F27Y/S63L/Y105V,2.79,2 of 3
F29C/S52L/D107C,5.32,1 of 3
A33F/Y108G,4.30,2 of 3
I58G/S63T/R101D,5.74,3 of 3
S55R/G100S/G104H,4.48,1 of 3
I51H/I58Q/V99E,3.26,1 of 3
H35C/G102R/G103S,4.58,1 of 3
Y32F/S52E/F106W,3.83,1 of 3
V99F/G103I/Y105I,not detected,0 of 3
G50N/N54E/K65R,not detected,0 of 3
H35Y/G103A/Y108W,not detected,0 of 3
D30P/Y32S/V64G,not detected,0 of 3
S63K/D107R,2.15,3 of 3
S55M/G56R/Y108W,4.73,1 of 3
S57T/I58Y/Y60D,not detected,0 of 3
I51V/S55N/G56R,3.80,2 of 3
G26N/V99W/G102W,not detected,0 of 3
M34K/I58P/A61P,5.52,1 of 3
A33I/G56D/S57I,4.87,3 of 3
M34E/G102Y/G104V,not detected,0 of 3
S63F/G100F/D107W,3.13,2 of 3
V64K/G102S,not detected,0 of 3
I58A/G59Y/G103H,not detected,0 of 3
N54M/G56F/Y108M,not detected,0 of 3
V64W/G103W/Y105K,3.76,1 of 3
Y32G/G50S/Y108R,not detected,0 of 3
D30N/S55P/G56I,4.17,3 of 3
D31S/G100H/D107G,2.75,3 of 3
G56I/G59W/F106N,5.41,2 of 3
F29R/G104S,not detected,0 of 3
A33P/V64D/K65N,not detected,0 of 3
G26H/D30Q/V64C,5.56,2 of 3
T28I/D62S/Y108W,4.86,3 of 3
D30L/I51N/G104P,5.00,2 of 3
T28Q/H35C/Y108A,3.82,1 of 3
G56A/V99H,not detected,0 of 3
D31I/Y60T/V99L,5.78,1 of 3
N54D/G56V/V99A,0.33,3 of 3
A33S/A61D/G103F,5.48,1 of 3
H35F/G56A,not detected,0 of 3
G50Y/Y60P/A61Y,5.22,2 of 3
Y60L/V64N/K65A,not detected,0 of 3
D62A/S63D/G103S,not detected,0 of 3
H35W/I51F/R101G,3.23,1 of 3
W53K/K65I,3.60,1 of 3
G50T/I51P/S52Q,not detected,0 of 3
T28S/D31V/K65M,not detected,0 of 3
A33P/I51R/G59C,not detected,0 of 3

A selection of 4 entries from above:

changes,"log10 Kd (nM), mean",seen in
G26H/D30Q/V64C,5.56,2 of 3
V99F/G103I/Y105I,not detected,0 of 3
Y60L/V64N/K65A,not detected,0 of 3
M34K/I58P/A61P,5.52,1 of 3